# Antibody variant affinities, Ab-14 heavy chain, assay B

The target is the same throughout: PDVDLGDISGINAS, from the HR2 region of SARS-CoV-2 spike.

Each scFv is VH, a 15-residue (Gly4Ser)3 linker, VL, as in the parent Ab-14, and differs from it in the CDRs of the heavy chain only.
VH: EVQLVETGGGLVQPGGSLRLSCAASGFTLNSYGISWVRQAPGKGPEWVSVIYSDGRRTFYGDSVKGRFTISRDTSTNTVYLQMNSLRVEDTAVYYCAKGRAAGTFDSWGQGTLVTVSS
VL: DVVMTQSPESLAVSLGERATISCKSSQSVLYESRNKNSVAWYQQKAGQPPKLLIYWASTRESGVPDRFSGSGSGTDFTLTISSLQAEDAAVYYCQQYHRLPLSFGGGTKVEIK

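Designed CDR sequences, proposed from the first random library and measured here. Several design methods are mixed in this list. Affinity was read by AlphaSeq, a pooled yeast mating assay with surface-displayed partners. The frequency of each diploid, read from paired DNA barcodes, reflects how well the two displayed proteins bind. A regression on co-assayed BCL2-family reference pairs converts the normalised counts of each replicate to an apparent Kd. Each pool was mated in six replicate cultures.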

Each variant is given by its three heavy chain CDRs, as the data file delimits them; those of the parent are GFTLNSYGIS, VIYSDGRRTFYGDSVK, GRAAGTFDS. Variants here have at most six changes. Affinities are written as log10 Kd with Kd in nM; a lower number is a better binder. A mean of the replicates is given; it leaves out those without a signal. "nd" marks a missing value. The strain was present, yet no cells mated with the target were sequenced in that replicate, which points to weak or no binding. Values of this round are not directly comparable with the first-round values of the same sequences. The parent sequence was in this pool as ten entries: three were never detected, three once, and four in most replicates, with averages from 0.34 to 2.37. In the paper, a design with two or fewer of six values counts as a poor binder. As a blank, each scFv also met three strains without target: over all heavy chain designs, 1% of these pairings were detected, typically at 2.08 and seldom below 0.84. For each scFv, signals with the empty controls are counted beside the result.

With GFELNSYGIS | VIYSDGRRTFYGDSVK | GRTAGTFDS the result was 0.47, 0.01, 0.43, 0.07, 0.29, 0.13 (mean 0.23; controls 0 of 18). For GFNLNSYGIS | VIYSDGRRTFYQDSVK | GRTAGTFDS, the assay gave 0.65, 1.59, 0.91, 0.97, 0.73, 1.38 (mean 1.04; controls 1 of 18). The variant GFTLNDYGIS | VIYSDGRRTAYGDSVK | GRAAGTFIS showed nd, nd, nd, nd, nd, nd (controls 0 of 18). With GFSLNSYGIS | VIYSDGRRTFYIDSVK | GKAAGTFDQ the result was 1.97, 0.82, nd, 1.32, nd, 2.31 (mean 1.60; controls 0 of 18). The variant GFDLNSYGIS | VIYSDGMRTFYTDSVK | GRTAGTFDS showed -0.47, -0.34, -0.46, -0.46, -0.40, -0.33 (mean -0.41; controls 0 of 18). With GFTLNNYGIS | VIYSDGTRTFYSDSVK | GRAAGTFDS the result was nd, nd, nd, nd, nd, nd (controls 0 of 18). With GFSLNSYGIS | VIYSDGRRTFYADSVK | GRLAGTFDN the result was -0.04, -0.41, 0.28, -0.04, 0.48, -0.17 (mean 0.02; controls 0 of 18). With GFALNSYGIS | VIYADGMRTFYGNDVK | GRAAGTFDS the result was 0.90, nd, nd, 0.55, 0.45, 1.25 (mean 0.79; controls 0 of 18). With GFTLNEYGIS | VIYSDGRRTFYSDAVK | GRIAGTFDS the result was 0.00, -0.25, -0.24, -0.31, -0.06, -0.31 (mean -0.19; controls 1 of 18).

The variant GFDLNSYGIS | VIYSDGRRTFYQDSVK | GRMAGTFDS showed 1.56, 1.17, 1.15, 1.27, 1.53, 1.81 (mean 1.41; controls 1 of 18). For GFTLNMYGIS | VIYSDGLRTFYLDSVK | GRAAGTFDS, the assay gave nd, nd, nd, nd, nd, nd (controls 0 of 18). With GFTLNSYGIS | VIYSDGRRTFYIDSVK | GNAAGTFDS the result was nd, 0.03, 0.83, 0.35, 0.39, 1.17 (mean 0.55; controls 0 of 18). With GFTLNEYGIS | VIYSDGRRAFYGDSVK | GLAAGTFDS the result was 1.03, 2.25, 2.00, 1.18, 0.99, 1.07 (mean 1.42; controls 0 of 18). The variant GFTLNEYGIS | VIYLDGRRTFYGDSVK | GRAAVTFDQ showed nd, nd, nd, nd, nd, nd (controls 0 of 18). With GNTLNEYGIS | VIYSDGRRTFYGDSVK | GRMAGTFDS the result was 0.97, 1.21, 1.29, 0.99, 0.90, 1.91 (mean 1.21; controls 0 of 18). With GFTLNSYGIS | VIYSDGRKTFYDDSVK | GQEAGTFDS the result was nd, nd, 0.77, nd, 1.52, 2.29 (mean 1.53; controls 1 of 18). For GFDLNSYGIS | VIYSDGRRTFYGDSVK | GEAAGTFDW, the assay gave 1.27, 1.57, 0.74, nd, 0.90, 1.41 (mean 1.18; controls 0 of 18). For GFTHNDYGIS | VIYSAGRRTQYIDSVK | GRAAGTFDS, the assay gave nd, nd, nd, nd, nd, nd (controls 0 of 18).

With GFTLDSYGMS | VIYSDGRRTFYGDSVK | GRAAGTALS the result was nd, nd, nd, nd, nd, nd (controls 1 of 18). With GFDLNSYGIS | VIYSDGRRTFYDDNVK | GRTAGTFDS the result was -0.26, -0.03, -0.26, -0.64, -0.44, -0.15 (mean -0.30; controls 0 of 18). The variant GFELNSYGIS | VIYADGRRTFYGDSVK | GEAAGTFDA gave 2.47, -0.46, -0.20, 0.07, 0.23, 1.84 (mean 0.66; controls 0 of 18). With GFWINSYGIS | VIYSDGRRTFYDDSVK | GMAAGTFDS the result was 1.29, nd, nd, 2.26, nd, nd (mean 1.77; controls 0 of 18). The variant GFELNSYGIS | VIYSDGRRTFYADSVK | GRLAGTFDS gave 0.73, 1.49, 0.78, 0.81, 0.82, 0.65 (mean 0.88; controls 0 of 18). With GFDLNSYGIS | VIYSDGRRTFYGDSVK | GRIAGTFDL the result was 0.71, 0.42, 0.74, 0.00, 0.04, 0.22 (mean 0.35; controls 0 of 18). The variant GFTLNSYGIS | VIYADGRRTFYGDSVK | GWAAGTFDK gave nd, 2.18, nd, 1.04, 1.56, 1.18 (mean 1.49; controls 0 of 18). For GFKLNSYGIH | VIYSDGRRTFYGDSVK | GRAAGTFDL, the assay gave nd, nd, nd, nd, nd, nd (controls 0 of 18). The variant GFSLNSYGIS | VIYSDGRRTFYGDMVK | GEAAGTFDK showed 1.54, 0.87, 0.60, 0.14, 2.12, 1.35 (mean 1.10; controls 0 of 18).

For GFDLNSYGIS | VIYSDGRRTFYGDSVK | GRAAGSFWS, the assay gave 0.97, 0.57, nd, 0.60, 0.89, 0.25 (mean 0.66; controls 1 of 18). For GFTLNSYGIS | VIYSDGKRTFYSDSVK | GQAGGTFDS, the assay gave 2.10, 1.57, nd, 1.66, 1.40, 3.28 (mean 2.00; controls 1 of 18). The variant GFELNSYGIS | VIYADGRRTFYGDSVK | GHAAGTFDA gave -0.36, -0.35, -0.43, -0.35, -0.35, -0.25 (mean -0.35; controls 1 of 18). For GFDLNSYGIS | VIYSDGRRTFYQDSVK | GRWAGTFDS, the assay gave 1.45, 2.05, 0.93, 1.50, nd, 1.80 (mean 1.54; controls 0 of 18). With GFELNSYGIS | VIYSDGRRTFYGDSVK | GRIAGTFDS the result was 1.05, 0.94, 0.76, 0.65, 0.92, 0.58 (mean 0.82; controls 1 of 18). With GFNLNSYGIS | VIYSDGRRTFYADDVK | GRNAGTFDS the result was 0.19, 0.01, -0.31, -0.26, 0.55, 0.70 (mean 0.15; controls 0 of 18). The variant GFELNDYGIS | VIYSDGRRTFYIDSVK | GRTAGTFDS showed 2.19, 1.35, 0.91, 1.47, 0.97, 2.52 (mean 1.57; controls 0 of 18). The variant PFTLNDQGIS | VIYSDGRRTSYGDSVK | GRAAGTFDS showed nd, nd, nd, 1.12, nd, nd (controls 1 of 18).

The first 5 variants above that were never detected:

CDR-H1	CDR-H2	CDR-H3	log10 Kd (nM) by replicate	log10 Kd (nM), mean	control signals
GFTLNDYGIS	VIYSDGRRTAYGDSVK	GRAAGTFIS	nd, nd, nd, nd, nd, nd	nd	0/18
GFTLNNYGIS	VIYSDGTRTFYSDSVK	GRAAGTFDS	nd, nd, nd, nd, nd, nd	nd	0/18
GFTLNMYGIS	VIYSDGLRTFYLDSVK	GRAAGTFDS	nd, nd, nd, nd, nd, nd	nd	0/18
GFTLNEYGIS	VIYLDGRRTFYGDSVK	GRAAVTFDQ	nd, nd, nd, nd, nd, nd	nd	0/18
GFTHNDYGIS	VIYSAGRRTQYIDSVK	GRAAGTFDS	nd, nd, nd, nd, nd, nd	nd	0/18

Reference: Li et al. 2023, doi:10.1038/s41467-023-39022-2. File: FLAb, binding data.